The values that follow come from patent US20210186970A1, “SELECTIVE CALCIUM CHANNEL ANTAGONISTS” (Northwestern University, priority 2011, published 2021).

Amino acid sequences for entries named in this document (tags omitted).
UniProt P27732, whole entry: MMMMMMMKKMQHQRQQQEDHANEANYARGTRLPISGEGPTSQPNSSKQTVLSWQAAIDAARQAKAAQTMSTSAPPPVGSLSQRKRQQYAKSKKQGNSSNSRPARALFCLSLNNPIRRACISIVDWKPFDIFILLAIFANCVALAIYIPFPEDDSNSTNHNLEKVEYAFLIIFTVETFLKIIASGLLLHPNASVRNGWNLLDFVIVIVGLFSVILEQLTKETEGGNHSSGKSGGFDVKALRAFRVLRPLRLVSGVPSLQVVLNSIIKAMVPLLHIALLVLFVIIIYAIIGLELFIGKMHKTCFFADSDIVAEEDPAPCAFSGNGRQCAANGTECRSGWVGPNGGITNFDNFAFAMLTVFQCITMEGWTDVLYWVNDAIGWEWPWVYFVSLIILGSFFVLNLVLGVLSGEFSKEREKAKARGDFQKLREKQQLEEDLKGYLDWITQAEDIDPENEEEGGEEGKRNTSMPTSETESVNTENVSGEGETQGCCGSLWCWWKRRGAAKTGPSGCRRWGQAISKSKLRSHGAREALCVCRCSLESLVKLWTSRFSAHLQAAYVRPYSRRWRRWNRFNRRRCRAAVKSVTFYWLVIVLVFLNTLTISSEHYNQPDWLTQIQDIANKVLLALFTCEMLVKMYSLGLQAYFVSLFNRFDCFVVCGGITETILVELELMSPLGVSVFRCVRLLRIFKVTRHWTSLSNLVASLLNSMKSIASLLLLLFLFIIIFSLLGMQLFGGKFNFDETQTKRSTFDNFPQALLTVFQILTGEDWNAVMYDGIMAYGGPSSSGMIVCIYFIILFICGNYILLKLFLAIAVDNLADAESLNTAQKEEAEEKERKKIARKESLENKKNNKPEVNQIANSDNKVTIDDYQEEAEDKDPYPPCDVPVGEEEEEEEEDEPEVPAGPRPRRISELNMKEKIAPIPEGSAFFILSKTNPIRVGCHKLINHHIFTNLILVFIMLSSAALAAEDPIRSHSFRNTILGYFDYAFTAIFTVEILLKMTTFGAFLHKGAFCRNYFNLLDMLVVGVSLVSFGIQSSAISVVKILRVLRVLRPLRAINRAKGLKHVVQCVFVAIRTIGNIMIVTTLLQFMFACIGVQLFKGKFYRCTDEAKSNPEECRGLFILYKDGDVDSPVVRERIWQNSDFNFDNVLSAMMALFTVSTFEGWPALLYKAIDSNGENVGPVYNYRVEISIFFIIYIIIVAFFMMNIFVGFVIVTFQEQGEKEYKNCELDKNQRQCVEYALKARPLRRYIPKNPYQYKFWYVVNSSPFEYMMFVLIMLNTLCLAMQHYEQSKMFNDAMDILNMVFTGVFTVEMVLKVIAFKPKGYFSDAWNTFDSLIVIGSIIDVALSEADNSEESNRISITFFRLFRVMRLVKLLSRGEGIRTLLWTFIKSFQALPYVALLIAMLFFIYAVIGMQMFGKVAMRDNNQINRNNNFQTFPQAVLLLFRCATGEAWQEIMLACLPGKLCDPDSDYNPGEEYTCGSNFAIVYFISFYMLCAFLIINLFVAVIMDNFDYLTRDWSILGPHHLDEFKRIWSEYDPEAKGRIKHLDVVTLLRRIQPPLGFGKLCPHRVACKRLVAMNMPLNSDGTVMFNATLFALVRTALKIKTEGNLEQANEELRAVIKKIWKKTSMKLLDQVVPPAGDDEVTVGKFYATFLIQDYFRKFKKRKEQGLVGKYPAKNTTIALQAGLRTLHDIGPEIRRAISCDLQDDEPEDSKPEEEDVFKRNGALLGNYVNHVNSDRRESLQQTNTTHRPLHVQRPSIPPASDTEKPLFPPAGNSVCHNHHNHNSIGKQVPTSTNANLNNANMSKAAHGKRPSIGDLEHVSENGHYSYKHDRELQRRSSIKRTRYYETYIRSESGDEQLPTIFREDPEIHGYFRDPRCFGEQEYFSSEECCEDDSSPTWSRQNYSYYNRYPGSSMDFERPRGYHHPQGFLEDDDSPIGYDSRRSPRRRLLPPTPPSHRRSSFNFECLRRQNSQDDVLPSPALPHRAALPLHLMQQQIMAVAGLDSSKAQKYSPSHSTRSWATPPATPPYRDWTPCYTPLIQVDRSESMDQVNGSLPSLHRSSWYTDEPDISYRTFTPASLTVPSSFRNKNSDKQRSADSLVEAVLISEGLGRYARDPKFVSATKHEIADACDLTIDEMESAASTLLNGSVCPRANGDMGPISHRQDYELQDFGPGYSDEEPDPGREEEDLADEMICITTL

For the experiment, the target named is T1, Cav1.3 L-type Ca channels (Rattus norvegicus, UniProt P27732).
T1 construct: expressed in transfected cells; host or cells: HEK293
As to the kind of experiment: FLIPR Fluo-8 calcium assay, Cav1.3 channel inhibition in HEK293 cells. It is filed as cell-based.

Turning to `O=C1CC(=O)N(Cc2ccc(Cl)cc2)C(=O)N1CCc1ccc2ccccc2c1` [Compound 66], the Selectivity was 1.4.
